Results taken from US20240360082A1, “SUBSTITUTED PYRIDONE COMPOUNDS USEFUL TO TREAT ORTH[…]” (priority 2021, published 2024).
Like-named read-outs stand apart in the source and are kept apart here.

Test system: influenza virus (multiple flu strains)
Test: organism not typed
Conditions: MDCK
[1] = read-out: NA Alaska H3N2 IC50, NA assay, Alaska H3N2 strain
[2] = read-out: NA CAL H1N1 IC50, NA assay, CAL H1N1 strain
[3] = read-out: NA Alaska H3N2, NA assay, Alaska H3N2 strain
[4] = read-out: NA CAL H1N1, NA assay, CAL H1N1 strain
[5] = read-out: NA—PR8 H1N1, NA assay, PR8 H1N1 strain

Row | SMILES | IC50 [1] | IC50 [2] | IC50 [3] | IC50 [4] | IC50 [5]
1 | NC(=O)c1cc(-c2ccc(OCc3ccncn3)cc2)c(C(F)(F)F)[nH]c1=O [Example 215, 2-oxo-5-(4-(pyrimidin-4-ylmethoxy)phenyl)-6-(trifluoromethyl)-1,2-dihydropyridine-3-carboxamide] | 0.1 to 1 µM | 5 to 10 µM |  |  | 
2 | NC(=O)c1cc(-c2ccc(OCc3ccccc3[N+](=O)[O-])cc2)c(C(F)(F)F)[nH]c1=O [Example 76, 5-(4-((2-nitrobenzyl)oxy)phenyl)-2-oxo-6-(trifluoromethyl)-1,2-dihydropyridine-3-carboxamide] |  |  | 0.1 to 1 µM | 0.1 to 1 µM | 
3 | N#CCC1(COc2ccc(-c3cc(C(N)=O)c(=O)[nH]c3C(F)(F)F)cc2)COC1 [Example 229, 5-(4-((3-(cyanomethyl)oxetan-3-yl)methoxy)phenyl)-2-oxo-6-(trifluoromethyl)-1,2-dihydropyridine-3-carboxamide] | 1 to 5 µM | 5 to 10 µM |  |  | 
4 | Cc1noc(C)c1COc1ccc(-c2cc(C(N)=O)c(=O)[nH]c2C(F)(F)F)cc1 [Example 107, 5-(4-((3,5-dimethylisoxazol-4-yl)methoxy)phenyl)-2-oxo-6-(trifluoromethyl)-1,2-dihydropyridine-3-carboxamide] |  |  | 0.1 to 1 µM | 1 to 5 µM | 
5 | NC(=O)c1cc(-c2ccc(OCc3cnc(O)nc3)cc2)c(C(F)(F)F)[nH]c1=O [Example 150, 5-(4-((2-hydroxypyrimidin-5-yl)methoxy)phenyl)-2-oxo-6-(trifluoromethyl)-1,2-dihydropyridine-3-carboxamide] |  |  | 1 to 5 µM | 25 to 50 µM | 
6 | NC(=O)c1cc(-c2ccc(OCC3CN(C4COC4)CCCO3)cc2)c(C(F)(F)F)[nH]c1=O (stereo not drawn) [Example 196, 5-(4-((4-(oxetan-3-yl)-1,4-oxazepan-2-yl)methoxy)phenyl)-2-oxo-6-(trifluoromethyl)-1,2-dihydropyridine-3-carboxamide] |  |  | 0.1 to 1 µM | 10 to 25 µM | 
7 | CC(Oc1ccc(-c2cc(C(N)=O)c(=O)[nH]c2C(F)(F)F)cc1)c1cncc(C#N)c1 (single isomer, unassigned) [Example 124, (R or S)-5-(4-(1-(5-cyanopyridin-3-yl)ethoxy)phenyl)-2-oxo-6-(trifluoromethyl)-1,2-dihydropyridine-3-carboxamide] |  |  | 0.1 to 1 µM | 0.1 to 1 µM | 
8 | NC(=O)c1cc(-c2ccc(OCc3cncc(-c4ccoc4)c3)cc2)c(C(F)(F)F)[nH]c1=O [Example 178, 5-(4-((5-(furan-3-yl)pyridin-3-yl)methoxy)phenyl)-2-oxo-6-(trifluoromethyl)-1,2-dihydropyridine-3-carboxamide] |  |  | 0.01 to 0.1 µM | 0.1 to 1 µM | 
9 | NC(=O)c1cc(-c2ccc(OCc3ccccn3)cc2)c(C(F)(F)F)[nH]c1=O [Example 73, 2-oxo-5-(4-(pyridin-2-ylmethoxy)phenyl)-6-(trifluoromethyl)-1,2-dihydropyridine-3-carboxamide] |  |  | 0.1 to 1 µM | 0.1 to 1 µM | 
10 | C[C@@H]1COC[C@@H](COc2ccc(-c3cc(C(N)=O)c(=O)[nH]c3C(F)(F)F)cc2)O1 [Example 329, 5-(4-(((2S,6R)-6-methyl-1,4-dioxan-2-yl)methoxy)phenyl)-2-oxo-6-(trifluoromethyl)-1,2-dihydropyridine-3-carboxamide] | 0.01 to 0.1 µM | 0.1 to 1 µM |  |  | 
11 | NC(=O)c1cc(-c2ccc(OCc3ccc4cc[nH]c4c3)cc2)c(C(F)(F)F)[nH]c1=O [Example 86, 5-(4-((1H-indol-6-yl)methoxy)phenyl)-2-oxo-6-(trifluoromethyl)-1,2-dihydropyridine-3-carboxamide] |  |  | 0.1 to 1 µM | 10 to 25 µM | 
12 | NC(=O)c1cc(-c2ccc(OC[C@@H]3COC[C@H](C4CC4)O3)cc2)c(C(F)(F)F)[nH]c1=O [Example 404, 5-(4-(((2S,6S)-6-cyclopropyl-1,4-dioxan-2-yl)methoxy)phenyl)-2-oxo-6-(trifluoromethyl)-1,2-dihydropyridine-3-carboxamide] | 0.01 to 0.1 µM | 0.01 to 0.1 µM |  |  | 
13 | CN1CCCC(COc2ccc(-c3cc(C(N)=O)c(=O)[nH]c3C(F)(F)F)cc2)C1 (stereo not drawn) [Example 92, 5-(4-((1-methylpiperidin-3-yl)methoxy)phenyl)-2-oxo-6-(trifluoromethyl)-1,2-dihydropyridine-3-carboxamide] |  |  | 1 to 5 µM | 5 to 10 µM | 
14 | NC(=O)c1cc(-c2ccc(OCc3ccncc3F)cc2)c(C(F)(F)F)[nH]c1=O [Example 139, 5-(4-((3-fluoropyridin-4-yl)methoxy)phenyl)-2-oxo-6-(trifluoromethyl)-1,2-dihydropyridine-3-carboxamide] |  |  | 0.1 to 1 µM | 1 to 5 µM | 
15 | NC(=O)c1cc(-c2ccc(OCc3cnc(NCCO)nc3)cc2)c(C(F)(F)F)[nH]c1=O [Example 162, 5-(4-((2-((2-hydroxyethyl)amino)pyrimidin-5-yl)methoxy)phenyl)-2-oxo-6-(trifluoromethyl)-1,2-dihydropyridine-3-carboxamide] |  |  | 0.1 to 1 µM | 10 to 25 µM | 
16 | NC(=O)c1cc(-c2ccc(OCc3cnc(NC4CCOC4)nc3)cc2)c(C(F)(F)F)[nH]c1=O (stereo not drawn) [Example 166, 2-oxo-5-(4-((2-((tetrahydrofuran-3-yl)amino)pyrimidin-5-yl)methoxy)phenyl)-6-(trifluoromethyl)-1,2-dihydropyridine-3-carboxamide] |  |  | 0.1 to 1 µM | 1 to 5 µM | 

Row | SMILES | IC50 [1] | IC50 [2] | IC50 [3] | IC50 [4] | IC50 [5]
17 | NC(=O)c1cc(-c2ccc(OCc3cnccn3)cc2)c(C(F)(F)F)[nH]c1=O [Example 123, 2-oxo-5-(4-(pyrazin-2-ylmethoxy)phenyl)-6-(trifluoromethyl)-1,2-dihydropyridine-3-carboxamide] |  |  | 0.01 to 0.1 µM | 0.1 to 1 µM | 
18 | NC(=O)c1cc(-c2ccc(OCc3cccc(C(F)(F)F)c3)cc2)c(C(F)(F)F)[nH]c1=O [Example 79, 2-oxo-6-(trifluoromethyl)-5-(4-((3-(trifluoromethyl)benzyl)oxy)phenyl)-1,2-dihydropyridine-3-carboxamide] |  |  | 0.1 to 1 µM | 0.1 to 1 µM | 
19 | NC(=O)c1cc(-c2ccc(OCc3cnc(OCC4CCOC4)nc3)cc2)c(C(F)(F)F)[nH]c1=O (stereo not drawn) [Example 157, 2-oxo-5-(4-((2-((tetrahydrofuran-3-yl)methoxy)pyrimidin-5-yl)methoxy)phenyl)-6-(trifluoromethyl)-1,2-dihydropyridine-3-carboxamide] |  |  | 0.1 to 1 µM | 5 to 10 µM | 
20 | CC(C)Oc1ccc(-c2cc(C(N)=O)c(=O)[nH]c2C(F)(F)F)cc1 [Example 17, 5-(4-isopropoxyphenyl)-2-oxo-6-(trifluoromethyl)-1,2-dihydropyridine-3-carboxamide] |  |  |  |  | 1 to 5 µM
21 | NC(=O)c1cc(-c2ccc(OCC3(S(=O)(=O)C4CC4)CC3)cc2)c(C(F)(F)F)[nH]c1=O [Example 253, 5-(4-((1-(cyclopropylsulfonyl)cyclopropyl)methoxy)phenyl)-2-oxo-6-(trifluoromethyl)-1,2-dihydropyridine-3-carboxamide] | 0.1 to 1 µM | 1 to 5 µM |  |  | 
22 | NC(=O)c1cc(-c2ccc(OCC3CCCOC3)cc2)c(C(F)(F)F)[nH]c1=O (stereo not drawn) [Example 102, 2-oxo-5-(4-((tetrahydro-2H-pyran-3-yl)methoxy)phenyl)-6-(trifluoromethyl)-1,2-dihydropyridine-3-carboxamide] |  |  | 0.01 to 0.1 µM | 0.1 to 1 µM | 
23 | Cc1cc(C)nc(COc2ccc(-c3cc(C(N)=O)c(=O)[nH]c3C(F)(F)F)cc2)n1 [Example 140, 5-(4-((4,6-dimethylpyrimidin-2-yl)methoxy)phenyl)-2-oxo-6-(trifluoromethyl)-1,2-dihydropyridine-3-carboxamide] |  |  | 1 to 5 µM | 5 to 10 µM | 
24 | COCCN1CCOC(COc2ccc(-c3cc(C(N)=O)c(=O)[nH]c3C(F)(F)F)cc2)C1 (stereo not drawn) [Example 193, 5-(4-((4-(2-methoxyethyl)morpholin-2-yl)methoxy)phenyl)-2-oxo-6-(trifluoromethyl)-1,2-dihydropyridine-3-carboxamide] |  |  | 0.1 to 1 µM | 10 to 25 µM | 
25 | NC(=O)c1cc(-c2ccc(OCc3cnc(OCC4COC4)nc3)cc2)c(C(F)(F)F)[nH]c1=O [Example 151, 5-(4-((2-(oxetan-3-ylmethoxy)pyrimidin-5-yl)methoxy)phenyl)-2-oxo-6-(trifluoromethyl)-1,2-dihydropyridine-3-carboxamide] |  |  | 1 to 5 µM | 25 to 50 µM | 
26 | NC(=O)c1cc(-c2ccc(OCc3ccc4cccnc4c3)cc2)c(C(F)(F)F)[nH]c1=O [Example 138, 2-oxo-5-(4-(quinolin-7-ylmethoxy)phenyl)-6-(trifluoromethyl)-1,2-dihydropyridine-3-carboxamide] |  |  | 1 to 5 µM | 10 to 25 µM | 
27 | NC(=O)c1cc(-c2ccc(OCc3cc(F)ccc3F)cc2)c(C(F)(F)F)[nH]c1=O [Example 116, 5-(4-((2,5-difluorobenzyl)oxy)phenyl)-2-oxo-6-(trifluoromethyl)-1,2-dihydropyridine-3-carboxamide] |  |  | 1 to 5 µM | 0.1 to 1 µM | 
28 | CCC1(COc2ccc(-c3cc(C(N)=O)c(=O)[nH]c3C(F)(F)F)cc2)COC1 [Example 228] | 0.1 to 1 µM | 1 to 5 µM |  |  | 
29 | NC(=O)c1cc(-c2ccc(OCc3ccc(Cl)cn3)cc2)c(C(F)(F)F)[nH]c1=O [Example 105, 5-(4-((5-chloropyridin-2-yl)methoxy)phenyl)-2-oxo-6-(trifluoromethyl)-1,2-dihydropyridine-3-carboxamide] |  |  | 0.1 to 1 µM | 1 to 5 µM | 
30 | Cn1ncc2cc(COc3ccc(-c4cc(C(N)=O)c(=O)[nH]c4C(F)(F)F)cc3)ccc21 [Example 145, 5-(4-((1-methyl-1H-indazol-5-yl)methoxy)phenyl)-2-oxo-6-(trifluoromethyl)-1,2-dihydropyridine-3-carboxamide] |  |  | 5 to 10 µM | 25 to 50 µM | 
31 | Cc1cccc(-c2cc(C(N)=O)c(=O)[nH]c2C(F)(F)F)c1 [Example 24, 2-oxo-5-(m-tolyl)-6-(trifluoromethyl)-1,2-dihydropyridine-3-carboxamide] |  |  |  |  | 5 to 10 µM
